The record followed here is patent publication US20260022143A1, “Cyclic Peptide Inhibitors of IL-23” (JANSSEN PHARMACEUTICA NV, priority 2022, published 2026).

For the first assay, the target named is T1, IL-23R (Homo sapiens, UniProt Q5VWK5).
T1 construct: host or cells: HEK293
T1 sequence (Q5VWK5 24-629): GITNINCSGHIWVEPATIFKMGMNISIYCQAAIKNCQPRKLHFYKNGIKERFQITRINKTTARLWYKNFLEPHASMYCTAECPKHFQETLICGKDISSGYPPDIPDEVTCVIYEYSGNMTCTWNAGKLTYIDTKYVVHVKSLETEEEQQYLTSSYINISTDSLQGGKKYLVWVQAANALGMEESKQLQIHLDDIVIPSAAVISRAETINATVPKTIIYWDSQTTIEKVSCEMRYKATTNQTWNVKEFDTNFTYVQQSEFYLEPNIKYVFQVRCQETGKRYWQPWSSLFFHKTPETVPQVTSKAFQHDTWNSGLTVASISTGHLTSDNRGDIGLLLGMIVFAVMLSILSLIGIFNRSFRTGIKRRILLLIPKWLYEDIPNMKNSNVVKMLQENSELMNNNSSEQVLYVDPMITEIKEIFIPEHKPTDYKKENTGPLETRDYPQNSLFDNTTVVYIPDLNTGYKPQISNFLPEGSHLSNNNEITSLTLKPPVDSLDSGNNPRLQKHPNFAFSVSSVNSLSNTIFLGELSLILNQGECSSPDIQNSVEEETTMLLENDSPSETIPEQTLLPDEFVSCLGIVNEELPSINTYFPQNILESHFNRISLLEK
Put plainly: IL23R Reporter Assay. To be noted: HEK293 cells containing IL-23R, IL-12RP1 and STAT-inducible firefly luciferase reporter; 10 ng/mL IL-23 (EC90); 5 h at 37° C.; read-out: IL23R Reporter Assay. The format is cell-based. (In general: A reporter such as luciferase makes a cellular process visible.)
For the compound `CC(=O)NCCCC[C@@H]1NC(=O)[C@H](Cc2c[nH]c3c(C)cccc23)NC(=O)[C@H]([C@@H](C)O)NC(=O)[C@H](CC(N)=O)NC(=O)[C@@H](NC(=O)CCOCCOCC[N+](C)(C)C)C(C)(C)SSC(C)(C)[C@@H](C(=O)N[C@@H](Cc2ccc(-n3cc(CCC[N+]4(C)CCOCC4)nn3)cc2)C(=O)N[C@@H](Cc2ccc3ccccc3c2)C(=O)NC2(C(=O)N[C@@H](CCCCNC(C)=O)C(=O)N[C@@H](CC(N)=O)C(=O)N[C@@H](Cc3cccnc3)C(=O)N(C)CC(N)=O)CCOCC2)NC1=O` [compound 439, cPEG3aCO-Pen(3)-N-T-7MeW-K(Ac)-Pen(3)-F(4TzlMMo3)-2Nal-THP-K(Ac)-N-3Pya-Sar-CONH2], the IC50 worked out at 0.0025 µM. Consider `CC(=O)N(C)CCCC[C@H](NC(=O)C1(NC(=O)[C@H](Cc2ccc3ccccc3c2)NC(=O)[C@H](Cc2ccc(OCCN)cc2)NC(=O)[C@H]2NC(=O)[C@H](CCC(=O)N(C)C)NC(=O)[C@H](Cc3c[nH]c4c(C)cccc34)NC(=O)[C@H]([C@@H](C)O)NC(=O)[C@H](CC(N)=O)NC(=O)[C@@H](NC(=O)CCOCCOCC[N+](C)(C)C)C(C)(C)SSC2(C)C)CCOCC1)C(=O)N[C@@H](CC(N)=O)C(=O)N[C@@H](Cc1cccnc1)C(=O)N(C)CC(N)=O` [compound 168, cPEG3aCO-Pen(3)-N-T-7MeW-Q(N(Me)2)-Pen(3)-AEF-2Nal-THP-K(NMeAc)-N-3Pya-Sar-CONH2], for which the IC50 is 0.0025 µM. On the same count and under the same terms, to `CC(=O)N(C)CCCC[C@@H]1NC(=O)[C@H](Cc2c[nH]c3c(C)cccc23)NC(=O)[C@H]([C@@H](C)O)NC(=O)[C@H](CC(=O)N(C)C)NC(=O)[C@@H](NC(=O)CCOCCOCC[N+](C)(C)C)C(C)(C)SSC(C)(C)[C@@H](C(=O)N[C@@H](Cc2ccc(OCCOCCOCC[N+]3(C)CCOCC3)cc2)C(=O)N[C@@H](Cc2ccc3ccccc3c2)C(=O)NC2(C(=O)N[C@@H](CCCCN(C)C(C)=O)C(=O)N[C@@H](CC(N)=O)C(=O)N[C@@H](Cc3cccnc3)C(=O)N(C)CC(=O)N(C)C)CCOCC2)NC1=O` [compound 223, cPEG3aCO-Pen(3)-N(N(Me)2)-T-7MeW-K(NMeAc)-Pen(3)-MMPEG3F-2Nal-THP-K(NMeAc)-N-3Pya-Sar-CON(Me)2] belongs 0.0022 µM; to `CC(=O)N(C)CCCC[C@@H]1NC(=O)[C@H](Cc2c[nH]c3c(C)cccc23)NC(=O)[C@H]([C@@H](C)O)NC(=O)[C@H](CC(=O)N(C)C)NC(=O)[C@@H](NC(=O)CCOCCOCC[N+](C)(C)C)C(C)(C)SSC(C)(C)[C@@H](C(=O)N[C@@H](Cc2ccc(OCC[N+](C)(C)CCOCC[N+](C)(C)C)cc2)C(=O)N[C@@H](Cc2ccc3ccccc3c2)C(=O)NC2(C(=O)N[C@@H](CCCCN(C)C(C)=O)C(=O)N[C@@H](CC(N)=O)C(=O)N[C@@H](Cc3cccnc3)C(=O)N(C)CC(=O)N(C)C)CCOCC2)NC1=O` [compound 264, cPEG3aCO-Pen(3)-N(N(Me)2)-T-7MeW-K(NMeAc)-Pen(3)-AEF(aPEG2a)-2Nal-THP-K(NMeAc)-N-3Pya-Sar-CON(Me)2], 0.0022 µM. As to `CC(=O)NCCCC[C@@H]1NC(=O)[C@H](Cc2c[nH]c3c(C)cccc23)NC(=O)[C@H]([C@@H](C)O)NC(=O)[C@H](CC(N)=O)NC(=O)[C@@H](NC(=O)[C@@H](CCCNC(=N)N)NC(C)=O)C(C)(C)SSC(C)(C)[C@@H](C(=O)N[C@@H](Cc2ccc(OCCN)cc2)C(=O)N[C@@H](Cc2ccc3ccccc3c2)C(=O)NC2(C(=O)N[C@@H](CCC(=O)O)C(=O)N[C@@H](CC(N)=O)C(=O)N(C)[C@H](Cc3ccc(O)cc3)C(N)=O)CCOCC2)NC1=O` [compound 34], the IC50 came to 0.33 µM. As for `CC(=O)NCCCC[C@@H]1NC(=O)[C@H](Cc2c[nH]c3c(-c4cccc(NC(C)=O)c4)cccc23)NC(=O)[C@H]([C@@H](C)O)NC(=O)[C@H](CC(N)=O)NC(=O)[C@@H](NC(=O)CCOCCOCC[N+](C)(C)C)C(C)(C)SSC(C)(C)[C@@H](C(=O)N[C@@H](Cc2ccc(OCCCCC[N+](C)(C)C)cc2)C(=O)N[C@@H](Cc2ccc3ccccc3c2)C(=O)NC2(C(=O)N[C@@H](CCC(=O)O)C(=O)N[C@@H](CC(N)=O)C(=O)N[C@@H](Cc3cccnc3)C(=O)N(C)CC(N)=O)CCOCC2)NC1=O` [compound 444, cPEG3aCO-Pen(3)-N-T-7(3NAcPh)W-K(Ac)-Pen(3)-TMAPF-2Nal-THP-E-N-3Pya-Sar-CONH2], the IC50 was 0.0029 µM. `CC(=O)NCCCC[C@@H]1NC(=O)[C@H](Cc2c[nH]c3c(C)cccc23)NC(=O)[C@H]([C@@H](C)O)NC(=O)[C@H](CC(N)=O)NC(=O)[C@@H](NC(C)=O)C(C)(C)SSC(C)(C)[C@@H](C(=O)N[C@@H](Cc2ccc(OCCn3cc(CC[N+](C)(C)C)nn3)cc2)C(=O)N[C@@H](Cc2ccc3ccccc3c2)C(=O)NC2(C(=O)N[C@@H](CCCCNC(C)=O)C(=O)N[C@@H](CC(N)=O)C(=O)N[C@@H](Cc3cccnc3)C(=O)N(C)CC(N)=O)CCOCC2)NC1=O` [compound 235]: the IC50 was found to be 0.0033 µM. On the same count and under the same terms, next, `CC(=O)NCCCC[C@@H]1NC(=O)[C@H](Cc2c[nH]c3c(-c4cccc(NC(C)=O)c4)cccc23)NC(=O)[C@H]([C@@H](C)O)NC(=O)[C@H](CC(N)=O)NC(=O)[C@@H](NC(=O)[C@@H](CCCC[N+](C)(C)C)NC(C)=O)C(C)(C)SSC(C)(C)[C@@H](C(=O)N[C@@H](Cc2ccc(OCCN)cc2)C(=O)N[C@@H](Cc2ccc3ccccc3c2)C(=O)NC2(C(=O)N[C@@H](CCC(=O)O)C(=O)N[C@@H](CC(N)=O)C(=O)N[C@@H](Cc3cncc(C)c3)C(=O)N(C)CC(N)=O)CCOCC2)NC1=O` [compound 535, MeCO-k(Me)3-Pen(3)-N-T-7(3NAcPh)W-K(Ac)-Pen(3)-AEF-2Nal-THP-E-N-5MePyridinAla-Sar-CONH2]: 0.0022 µM; `CC(=O)NCCCC[C@@H]1NC(=O)[C@H](Cc2c[nH]c3c(C)cccc23)NC(=O)[C@H]([C@@H](C)O)NC(=O)[C@H](CC(N)=O)NC(=O)[C@@H](NC(=O)CCOCCOCC[N+](C)(C)C)C(C)(C)SSC(C)(C)[C@@H](C(=O)N[C@@H](Cc2ccc(OCCCCC[N+](C)(C)C)cc2)C(=O)N[C@@H](Cc2ccc3ccccc3c2)C(=O)NC2(C(=O)N[C@@H](CCC(=O)O)C(=O)N[C@@H](CC(N)=O)C(=O)N[C@@H](Cc3cncc(C)c3)C(=O)N(C)CC(N)=O)CCOCC2)NC1=O` [compound 505, cPEG3aCO-Pen(3)-N-T-7MeW-K(Ac)-Pen(3)-TMAPF-2Nal-THP-E-N-5MePyridinAla-Sar-CONH2]: 0.0036 µM; `CC(=O)NCCCC[C@@H]1NC(=O)[C@H](Cc2c[nH]c3c(C)cccc23)NC(=O)[C@H]([C@@H](C)O)NC(=O)[C@H](CC(N)=O)NC(=O)[C@@H](NC(=O)[C@@H](CCCNC(=N)N)NC(=O)CCOCCOCCOCCOCCOCCOCCNC(C)=O)C(C)(C)SSC(C)(C)[C@@H](C(=O)N[C@@H](Cc2ccc(OCCN)cc2)C(=O)N[C@@H](Cc2ccc3ccccc3c2)C(=O)NC2(C(=O)N[C@@H](CCC(=O)O)C(=O)N[C@@H](CC(N)=O)C(=O)N[C@@H](Cc3cccnc3)C(=O)N(C)CC(N)=O)CCOCC2)NC1=O` [compound 37]: 0.0053 µM. `CC(=O)N(C)CCCC[C@@H]1NC(=O)[C@H](Cc2c[nH]c3c(C)cccc23)NC(=O)[C@H]([C@@H](C)O)NC(=O)[C@H](CC(=O)N(C)C)NC(=O)[C@@H](NC(=O)CCOCCOCC[N+](C)(C)C)C(C)(C)SSC(C)(C)[C@@H](C(=O)N[C@@H](Cc2ccc(OC/C=N/OCC[N+](C)(C)C)cc2)C(=O)N[C@@H](Cc2ccc3ccccc3c2)C(=O)NC2(C(=O)N[C@@H](CCCCN(C)C(C)=O)C(=O)N[C@@H](CC(N)=O)C(=O)N[C@@H](Cc3cccnc3)C(=O)N(C)CC(=O)N(C)C)CCOCC2)NC1=O` [compound 305, cPEG3aCO-Pen(3)-N(N(Me)2)-T-7MeW-K(NMeAc)-Pen(3)-Y(OEOXlMECh)-2Nal-THP-K(NMeAc)-N-3Pya-Sar-CON(Me)2]: the IC50 was determined as 0.0024 µM. Same read-out and setting: to `CC(=O)N(C)CCCC[C@@H]1NC(=O)[C@H](Cc2c[nH]c3c(C)cccc23)NC(=O)[C@H]([C@@H](C)O)NC(=O)[C@H](CC(=O)N(C)C)NC(=O)[C@@H](NC(=O)CCOCCOCCN)C(C)(C)SSC(C)(C)[C@@H](C(=O)N[C@@H](Cc2ccc(OCCCCCN)cc2)C(=O)N[C@@H](Cc2ccc3ccccc3c2)C(=O)NC2(C(=O)N[C@@H](CCCCN(C)C(C)=O)C(=O)N[C@@H](CC(N)=O)C(=O)N[C@@H](Cc3cccnc3)C(=O)N(C)CC(=O)N(C)C)CCOCC2)NC1=O` [compound 529, cPEG3AmCO-Pen(3)-N(N(Me)2)-T-7MeW-K(NMeAc)-Pen(3)-APF-2Nal-THP-K(NMeAc)-N-3Pya-Sar-CON(Me)2] belongs 0.0033 µM; to `CC(=O)NCCCC[C@@H]1NC(=O)[C@H](Cc2c[nH]c3c(C)cccc23)NC(=O)[C@H]([C@@H](C)O)NC(=O)[C@H](CC(N)=O)NC(=O)[C@@H](NC(C)=O)C(C)(C)SSC(C)(C)[C@@H](C(=O)N[C@@H](Cc2ccc(-n3cc(CCC[N+](C)(C)C)nn3)cc2)C(=O)N[C@@H](Cc2ccc3ccccc3c2)C(=O)NC2(C(=O)N[C@@H](CCCCNC(C)=O)C(=O)N[C@@H](CC(N)=O)C(=O)N[C@@H](Cc3cccnc3)C(=O)N(C)CC(N)=O)CCOCC2)NC1=O` [compound 423], 0.0011 µM.

The same assay, now with this note: read-out: IL23R Reporter Assay (micromolar); HEK293 cells containing IL-23R, IL-12RP1 and STAT-inducible firefly luciferase reporter; 10 ng/mL IL-23 (EC90); 5 h at 37° C.
On to “cPEG3aCO-Pen(3)-N(N(Me)2)-T-7MeW-K(NMeAC)-Pen(3)-TMAPF-2Nal-THP-K(NMeaC)-N-3Pya-NMeK(PEG2PEG2C12)-CONH2 [compound 307]”, for which the IC50 was 0.017 µM.
